The entries are a selection whose mix differs from that of the whole data set. Activity calls are given as the source filed them.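 Rule for the calls: active = inhibition above the mean over all tested compounds plus 3 SD (cut at about 21% in these data); inactive = the rest.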

By UniProt entry, the sequences of proteins in these tests, tags left out.
UniProt Q9NR96, whole entry: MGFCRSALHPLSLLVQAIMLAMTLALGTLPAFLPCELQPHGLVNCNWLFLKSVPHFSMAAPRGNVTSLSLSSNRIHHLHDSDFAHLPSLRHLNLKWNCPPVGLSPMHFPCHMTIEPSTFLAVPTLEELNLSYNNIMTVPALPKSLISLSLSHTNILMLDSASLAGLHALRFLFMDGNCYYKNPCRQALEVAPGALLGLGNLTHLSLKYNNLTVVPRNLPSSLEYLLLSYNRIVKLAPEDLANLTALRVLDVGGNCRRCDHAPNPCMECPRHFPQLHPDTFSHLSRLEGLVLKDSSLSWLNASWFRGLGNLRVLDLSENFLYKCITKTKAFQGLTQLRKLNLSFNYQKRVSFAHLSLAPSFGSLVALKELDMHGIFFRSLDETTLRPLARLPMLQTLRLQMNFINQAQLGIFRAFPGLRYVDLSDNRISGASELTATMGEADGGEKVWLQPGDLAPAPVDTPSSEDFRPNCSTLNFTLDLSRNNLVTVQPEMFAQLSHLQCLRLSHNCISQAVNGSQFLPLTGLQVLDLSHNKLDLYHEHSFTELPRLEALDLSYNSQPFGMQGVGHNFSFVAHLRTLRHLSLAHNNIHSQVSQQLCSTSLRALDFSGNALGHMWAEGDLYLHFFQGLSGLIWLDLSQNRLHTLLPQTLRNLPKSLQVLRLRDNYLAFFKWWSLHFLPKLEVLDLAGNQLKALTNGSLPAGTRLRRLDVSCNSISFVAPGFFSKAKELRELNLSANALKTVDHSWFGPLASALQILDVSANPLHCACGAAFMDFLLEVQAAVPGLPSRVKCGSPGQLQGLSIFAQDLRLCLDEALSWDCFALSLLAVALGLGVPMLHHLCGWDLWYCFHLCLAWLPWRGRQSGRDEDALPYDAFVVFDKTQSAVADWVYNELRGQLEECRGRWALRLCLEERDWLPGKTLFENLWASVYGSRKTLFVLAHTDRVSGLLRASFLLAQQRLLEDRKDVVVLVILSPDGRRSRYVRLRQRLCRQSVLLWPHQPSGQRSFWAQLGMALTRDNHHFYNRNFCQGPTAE

The target of the assay is Toll-like receptor 9 (Homo sapiens) + Myeloid differentiation primary response protein MyD88 (Homo sapiens) (UniProt Q9NR96+Q99836). As to the kind of experiment: inhibitors of TLR9-MyD88 association in cells, primary screen, cell-based, CHO, BLA complementation, fluorescence (AID 504734).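 Note: 0% = DMSO only wells and 100% = clavulanate BLA inhibitor control wells.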 The conditions noted are these: CHO BLA complementation TLR9-MyD88, CCF4 FRET ratio; at 4.98 µM; active compounds read high.
`COc1ccc(C(=O)NCC2(N3CCCCC3)CCCCC2)cc1`: the inhibition was inactive: 3.03%.

Consider `COc1ccc(C(=O)NCC2(N3CCCCC3)CCCCC2)c(OC)c1OC`, for which the inhibition is inactive: -3.84%.

With `CC(C)(C)OC(=O)N1CCC(N(C(=O)c2ccccc2)c2ccc(F)cc2)CC1`, the inhibition is inactive: -12%.

Turning to `O=C(NCC1(N2CCCCC2)CCCCC1)c1ccc(=O)[nH]c1`, the inhibition was inactive: -0.71%.

Take `O=C(NCC1(N2CCCCC2)CCCCC1)c1cccs1`: the inhibition is inactive: 0.86%.

Take `CSc1ccccc1C(=O)NCC1(N2CCCCC2)CCCCC1`: the inhibition is inactive: -4.07%.

Regarding `Cc1cccc(NC2(C#N)CCN(Cc3ccccc3)CC2)c1`, the inhibition was inactive: -3.9%.

With `O=C(NCC1(N2CCCCC2)CCCCC1)c1ccc(Cl)nc1`, the inhibition was inactive: 0.87%.

Take `Cc1cc(C)cc(N(C(=O)c2ccccc2)C2CCN(C(=O)OC(C)(C)C)CC2)c1`: the inhibition was inactive: -3.38%.

`O=C(NCC1(N2CCOCC2)CCCCC1)c1cc2ccccc2o1`: the inhibition was inactive: 7.94%.

For `O=C(OC1CN2CCC1CC2)C1c2ccccc2Oc2ccccc21` (stereo not given), the inhibition was inactive: -3.21%.

Regarding `O=C(NCC1(N2CCCCC2)CCCCC1)c1ccc(Cl)s1`, the inhibition is inactive: 5.1%.

Take `N#CC1(Nc2ccccc2)CCN(Cc2ccccc2)CC1`: the inhibition was inactive: -1.12%.

Regarding `COc1ccc(Cl)cc1C(=O)NCC1(N2CCOCC2)CCCCC1`, the inhibition was inactive: -10.6%.

With `CCOC(=O)N1CCC(Nc2ccc(OC)cc2)CC1`, the inhibition is inactive: 5.27%.

With `O=C1CCN(Cc2ccccc2)CC1`, the inhibition is inactive: -5.93%.

With `CCOc1ccc(C)cc1CN(CCCl)CCCl`, the inhibition is inactive: -15.5%.

With `O=C(NCC1(N2CCCCC2)CCCCC1)c1ccc(F)cc1`, the inhibition is inactive: 3.43%.

As to `CCCCOc1ccc(C(=O)NCC2(N3CCOCC3)CCCCC2)cc1`, the inhibition was inactive: 0.16%.

For `O=P1(N(CCCl)CCCl)SCCCS1`, the inhibition was inactive: 0.05%.

In the case of `CCOC(=O)N1CCC(Nc2ccc(F)cc2)CC1`, the inhibition was inactive: 5.8%.

On to `COc1ccc(NC2CCN(CCc3ccccc3)CC2)c(OC)c1`, for which the inhibition was inactive: -4.8%.

For the compound `COc1cc(C(=O)NCC2(N(C)C)CCCCC2)ccc1OC(F)F`, the inhibition was inactive: 0.27%.

As to `CCOC(=O)N1CCC(Nc2cccc(C)c2)CC1`, the inhibition is inactive: -7.55%.

For `O=C(NCC1(N2CCCCC2)CCCCC1)c1ccc(OC(F)F)cc1`, the inhibition was inactive: 7.02%.

On to `CCN1CCC(Nc2ccc(Cl)cc2)CC1`, for which the inhibition is inactive: -11.5%.

As for `N#CC1(Nc2ccccc2)CCN(CCc2ccccc2)CC1`, the inhibition was inactive: 7.14%.

As for `O=C(NCC1(N2CCCCC2)CCCCC1)c1cccc([N+](=O)[O-])c1`, the inhibition was inactive: 0.68%.

As to `CSc1ccc(C(=O)NCC2(N3CCOCC3)CCCCC2)cc1`, the inhibition was inactive: 2.94%.

Turning to `O=C(NCC1(N2CCCCC2)CCCCC1)c1cccc(C(F)(F)F)c1`, the inhibition was inactive: 3.95%.

In the case of `O=C(NCC1(N2CCOCC2)CCCCC1)c1cc(=O)[nH]c2ccccc12`, the inhibition is inactive: -6.62%.

`COc1cc(C(=O)NCC2(N3CCCCC3)CCCCC2)ccc1OC(F)F`: the inhibition was inactive: 2.08%.

Consider `COc1ccc(NC2CCN(C(=O)OC(C)(C)C)CC2)cc1`, for which the inhibition is inactive: -15.9%.

In the case of `CC(C)c1ccc(C(=O)NCC2(N3CCOCC3)CCCCC2)cc1`, the inhibition was inactive: 3.81%.

Consider `CN1CCN(CCOC(=O)C(O)(c2ccccc2)c2ccccc2)CC1`, for which the inhibition was inactive: -10.5%.

As for `CC(C)c1ccc(NC2CCN(C(=O)OC(C)(C)C)CC2)cc1`, the inhibition is inactive: -5.87%.

Regarding `COc1ccc(CN(CCCl)CCCl)cc1Cl`, the inhibition is inactive: 0.61%.

For the compound `CN(C)c1cccc(C(=O)NCC2(N3CCCCC3)CCCCC2)c1`, the inhibition was inactive: -2.04%.

Consider `COc1cc(OC)c(C(=O)NCC2(N(C)C)CCCCC2)cc1OC`, for which the inhibition was inactive: 0.38%.

As for `O=C(NCC1(N2CCOCC2)CCCCC1)c1cc(F)c(F)cc1Cl`, the inhibition is inactive: -7.02%.

As for `O=C(NCC1(N2CCCCC2)CCCCC1)c1cncc(Br)c1`, the inhibition was inactive: 1%.

`CN1CCC(Nc2cccc(F)c2)CC1`: the inhibition is inactive: -3.16%.

As for `Cc1ccc(C(=O)NCC2(N(C)C)CCCCC2)o1`, the inhibition is inactive: -1.17%.

For `CCCOc1ccc(C(=O)NCC2(N(C)C)CCCCC2)cc1OC`, the inhibition was inactive: 4.98%.

On to `COc1cc(C(=O)NCC2(N3CCOCC3)CCCCC2)cc(OC)c1C`, for which the inhibition was inactive: -16.1%.

Take `O=C(NCC1(N2CCOCC2)CCCCC1)c1cc(Br)ccc1Cl`: the inhibition was inactive: -19.8%.

In the case of `COc1ccc(C(=O)NCC2(N3CCOCC3)CCCCC2)cc1OC`, the inhibition was inactive: -2.16%.

Take `CCOC(=O)N1CCC(Nc2ccc(C)cc2)CC1`: the inhibition is inactive: 5.1%.

As for `N/C(=N\O)c1c(N)no[n+]1[O-]`, the inhibition was inactive: -9.07%.

As to `O=C(OC1CN2CCC1CC2)C1c2ccccc2C=Cc2ccccc21` (stereo not given), the inhibition is inactive: -1.69%.

As for `N#Cc1ccc(C(=O)NCC2(N3CCCCC3)CCCCC2)cc1`, the inhibition was inactive: 1.9%.

On to `CC(C)(C)OC(=O)N1CCC(N(C(=O)c2ccccc2)c2ccc(Cl)cc2)CC1`, for which the inhibition is inactive: -1.92%.

`CN(C)C1(CNC(=O)c2cccc(C#N)c2)CCCCC1`: the inhibition is inactive: 6.13%.

Turning to `c1ccc(CN2CCC(Nc3ccccc3)CC2)cc1`, the inhibition was inactive: -0.21%.

Take `CCCN1CCC(Nc2cc(OC)cc(OC)c2)CC1`: the inhibition is inactive: 1.86%.

Consider `Cc1cc(N(CCCl)CCCl)ccc1C=O`, for which the inhibition is inactive: -8.21%.

Turning to `CC(=O)N(c1ccccc1)C1CCNCC1`, the inhibition is inactive: 5.38%.

For `COc1cc(OC)cc(C(=O)NCC2(N3CCCCC3)CCCCC2)c1`, the inhibition is inactive: 1.94%.

As to `Cc1ccc(C(=O)NCC2(N3CCCCC3)CCCCC2)o1`, the inhibition was inactive: -1.62%.

In the case of `Fc1ccccc1NC1CCN(Cc2ccccc2)CC1`, the inhibition was inactive: 3.52%.

On to `Cc1ccc(NC2(C#N)CCN(Cc3ccccc3)CC2)cc1`, for which the inhibition is inactive: 12.8%.

On to `Cc1ccccc1NC1(C#N)CCN(Cc2ccccc2)CC1`, for which the inhibition is inactive: -4.17%.

For the compound `CCN1CCC(Nc2cccc(F)c2)CC1`, the inhibition was inactive: -1.01%.

On to `O=C(NCC1(N2CCCCC2)CCCCC1)c1ccco1`, for which the inhibition is inactive: 7.97%.

For `Cn1c(=O)[nH]cc(N(CCCl)CCCl)c1=O`, the inhibition is inactive: 1.07%.

As to `CN(C)c1ccc(C(=O)NCC2(N3CCCCC3)CCCCC2)cc1`, the inhibition is inactive: 1.04%.

For the compound `CCOc1ncccc1C(=O)NCC1(N2CCOCC2)CCCCC1`, the inhibition was inactive: -9.44%.

Take `CN1CCC(Nc2ccc(F)c(Cl)c2)CC1`: the inhibition was inactive: -3.48%.

On to `CC(C)(C)OC(=O)N1CCC(Nc2ccccc2)CC1`, for which the inhibition was inactive: 6.77%.

For `O=C(O)C1(Nc2ccccc2)CCN(Cc2ccccc2)CC1`, the inhibition is inactive: -9.59%.

In the case of `CCCOc1ccc(C(=O)NCC2(N(C)C)CCCCC2)cc1`, the inhibition was inactive: 8.09%.

On to `COc1cccc(C(=O)N(c2cc(C)cc(C)c2)C2CCN(C(=O)OC(C)(C)C)CC2)c1`, for which the inhibition was inactive: -6.26%.

As to `COc1cc(OC)cc(C(=O)NCC2(N3CCOCC3)CCCCC2)c1`, the inhibition was inactive: 4.57%.

As to `CCC(CO)(C(=O)OC1CN2CCC1CC2)c1ccccc1` (stereo not given), the inhibition was inactive: 5.31%.

For the compound `CN1CCC(Nc2ccc(Cl)cc2)CC1`, the inhibition is inactive: 6.01%.

The values above are taken from PubChem BioAssay AID504734 (The Scripps Research Institute Molecular Screening Center, 2011).
